In patent US9402842B2, “Synthesis and use of dual tyrosyl-DNA phosphodiesterase I (Tdp1)—topoisomerase I (Top1) inhibitors” (Purdue Research Foundation, priority 2012, dated 2016):
Where two headings read alike, the source gives them in different places.

Tests used:
[1] = target: Tdp1 (Homo sapiens (Human), UniProt Q9NUW8); assay: Gel-based assay measuring the inhibition of recombinant Tdp1; format: biochemical
[2] = tested on: HOP-62; assay: NCI screen cytotoxicity, lung HOP-62; conditions: read-out: Cytotoxicity (GI50 in μM) lung HOP-62; 50% growth inhibition
[3] = tested on: UACC-62; assay: NCI screen cytotoxicity, melanoma UACC-62; conditions: read-out: Cytotoxicity (GI50 in μM) melanoma UACC-62; 50% growth inhibition
[4] = tested on: HCT-116; assay: NCI screen cytotoxicity, colon HCT-116; conditions: read-out: Cytotoxicity (GI50 in μM) colon HCT-116; 50% growth inhibition
[5] = tested on: SN12C; assay: NCI screen cytotoxicity, renal SN12C; conditions: read-out: Cytotoxicity (GI50 in μM) renal SN12C; 50% growth inhibition
[6] = tested on: SF-539; assay: NCI screen cytotoxicity, CNS SF-539; conditions: read-out: Cytotoxicity (GI50 in μM) CNS SF-539; 50% growth inhibition
[7] = tested on: DU-145; assay: NCI screen cytotoxicity, prostate DU-145; conditions: read-out: Cytotoxicity (GI50 in μM) prostate DU-145; 50% growth inhibition
[8] = tested on: MDA-MB-435; assay: NCI screen cytotoxicity, breast MDA-MB-435; conditions: read-out: Cytotoxicity (GI50 in μM) breast MDA-MB-435; 50% growth inhibition

## N-(6-(5,11-Dioxo-5H-indeno[1,2-c]isoquinolin-6(11H)hexyl)-methanesulfonamide [Compound 84]
[1]; read-out: Tdp1 (semiquantitative IC50 scale)
  IC50: 1 to 12 µM
[1]; read-out: Tdp1 (μM), IC50 values of Tdp1 active compounds
  IC50: 5.2 ± 0.1 µM
[1]; read-out: Tdp1 IC50
  IC50: 5.2 ± 0.1 µM
[2]
  GI50: 0.14 µM
[3]
  GI50: 0.14 µM
[4]
  GI50: 0.07 µM
[5]
  GI50: 0.05 µM
[6]
  GI50: 0.39 µM
[7]
  GI50: 0.05 µM
[8]
  GI50: 0.96 µM
